A short description of the test: Inhibition of Trypanosoma brucei NMT by scintillation proximity assay.

One compound from ChEMBL document CHEMBL5634069, “Exploring N-myristoyltransferase as a promising drug target against parasitic neglected tropical diseases” (Eur J Med Chem, 2023) can be followed below.

In general, IC50 refers to the midpoint of a concentration-inhibition curve. Low readings indicate greater potency, high ones weaker potency. `COc1cc(C)c(S(=O)(=O)Nc2c(C)nn(C)c2C)c(C)c1C` showed an IC50 of 1900 nM.
